This note sets out measurements from ChEMBL document CHEMBL1128962, “Serotoninergic 5-HT3 and 5-HT4 receptor activities of dihydrobenzofuran carboxylic acid derivatives” (Bioorg Med Chem Lett, 1996).

Sequences of proteins named here, by UniProt entry; tags and fusion partners are left off. A change or cut given only in a name is not applied to a line headed by its entry.
UniProt P46098: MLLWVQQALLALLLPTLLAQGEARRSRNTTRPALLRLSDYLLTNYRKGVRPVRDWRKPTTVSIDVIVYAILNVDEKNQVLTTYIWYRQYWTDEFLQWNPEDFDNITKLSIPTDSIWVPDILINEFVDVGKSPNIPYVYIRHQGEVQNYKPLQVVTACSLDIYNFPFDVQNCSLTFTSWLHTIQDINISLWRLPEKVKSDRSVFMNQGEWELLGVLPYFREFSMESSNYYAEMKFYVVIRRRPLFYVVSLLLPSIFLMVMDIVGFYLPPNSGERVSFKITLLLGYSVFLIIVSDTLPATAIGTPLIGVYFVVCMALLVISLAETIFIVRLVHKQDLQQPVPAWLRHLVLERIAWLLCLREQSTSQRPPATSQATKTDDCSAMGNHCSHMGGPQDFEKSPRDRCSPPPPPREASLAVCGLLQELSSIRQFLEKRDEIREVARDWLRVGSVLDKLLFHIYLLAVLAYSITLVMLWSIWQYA
UniProt A5X5Y0: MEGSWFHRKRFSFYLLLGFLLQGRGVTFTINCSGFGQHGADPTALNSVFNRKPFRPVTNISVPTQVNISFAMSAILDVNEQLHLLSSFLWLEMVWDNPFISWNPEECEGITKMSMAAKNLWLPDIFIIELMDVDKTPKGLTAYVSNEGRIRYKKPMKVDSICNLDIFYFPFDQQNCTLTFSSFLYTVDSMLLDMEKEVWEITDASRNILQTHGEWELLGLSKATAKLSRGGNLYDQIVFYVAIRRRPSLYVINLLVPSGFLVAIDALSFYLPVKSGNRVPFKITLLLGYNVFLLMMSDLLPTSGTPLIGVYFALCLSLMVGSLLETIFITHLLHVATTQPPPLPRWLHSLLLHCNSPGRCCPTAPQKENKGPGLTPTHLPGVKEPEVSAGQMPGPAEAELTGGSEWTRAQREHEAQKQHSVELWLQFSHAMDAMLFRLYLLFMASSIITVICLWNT
UniProt O95264: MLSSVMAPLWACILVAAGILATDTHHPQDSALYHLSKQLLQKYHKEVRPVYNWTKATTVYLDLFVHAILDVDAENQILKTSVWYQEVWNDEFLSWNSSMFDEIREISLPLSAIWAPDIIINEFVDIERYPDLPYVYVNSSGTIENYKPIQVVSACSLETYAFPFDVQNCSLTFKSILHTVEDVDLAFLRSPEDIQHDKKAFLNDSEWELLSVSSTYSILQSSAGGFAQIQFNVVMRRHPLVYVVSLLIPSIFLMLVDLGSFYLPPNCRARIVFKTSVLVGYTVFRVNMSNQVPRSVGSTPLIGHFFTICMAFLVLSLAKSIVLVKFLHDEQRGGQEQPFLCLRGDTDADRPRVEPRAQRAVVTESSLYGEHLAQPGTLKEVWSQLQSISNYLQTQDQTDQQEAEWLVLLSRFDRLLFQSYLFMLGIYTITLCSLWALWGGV
UniProt Q70Z44: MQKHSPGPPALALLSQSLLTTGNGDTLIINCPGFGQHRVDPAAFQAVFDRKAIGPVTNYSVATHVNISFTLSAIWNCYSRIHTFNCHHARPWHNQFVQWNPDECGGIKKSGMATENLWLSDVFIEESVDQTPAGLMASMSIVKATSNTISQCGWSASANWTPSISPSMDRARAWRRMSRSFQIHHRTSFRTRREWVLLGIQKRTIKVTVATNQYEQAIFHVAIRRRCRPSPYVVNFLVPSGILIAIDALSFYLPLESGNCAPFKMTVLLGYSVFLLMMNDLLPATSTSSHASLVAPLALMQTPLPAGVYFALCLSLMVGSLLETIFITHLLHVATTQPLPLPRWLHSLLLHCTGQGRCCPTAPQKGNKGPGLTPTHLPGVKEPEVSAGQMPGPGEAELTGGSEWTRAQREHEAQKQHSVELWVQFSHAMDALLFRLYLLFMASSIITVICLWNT
UniProt Q8WXA8: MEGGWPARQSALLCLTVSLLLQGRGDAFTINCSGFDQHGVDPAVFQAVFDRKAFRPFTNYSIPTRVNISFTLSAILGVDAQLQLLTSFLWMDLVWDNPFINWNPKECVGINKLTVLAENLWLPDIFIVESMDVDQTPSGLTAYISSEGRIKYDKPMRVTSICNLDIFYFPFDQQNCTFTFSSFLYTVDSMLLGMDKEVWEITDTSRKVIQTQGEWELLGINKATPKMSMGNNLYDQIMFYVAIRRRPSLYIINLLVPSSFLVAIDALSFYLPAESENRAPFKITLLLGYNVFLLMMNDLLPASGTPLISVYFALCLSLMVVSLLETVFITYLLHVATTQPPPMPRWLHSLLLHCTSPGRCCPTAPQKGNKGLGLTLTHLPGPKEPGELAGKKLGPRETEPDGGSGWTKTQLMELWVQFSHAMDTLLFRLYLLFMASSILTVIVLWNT

The target of this assay is Serotonin 3 (5-HT3) receptor (Homo sapiens) (UniProt P46098+A5X5Y0+O95264+Q70Z44+Q8WXA8). As to the kind of experiment: In vitro 5-hydroxytryptamine 3 receptor activity in guinea pig ileum. It counts as tissue-based. As to conditions: Cavia porcellus, target entry is the homologue from another species.

The compound `Nc1c(Cl)cc(C(=O)O[C@H]2CN3CCC2CC3)c2c1CCO2` showed a Kb of 19 nM.

Compound `Nc1c(Cl)cc(C(=O)O[C@@H]2CN3CCC2CC3)c2c1CCO2` gave a Kb of 6.91 nM.
